The results in this text go back to patent publication US20260327242A1, “Platform and Scaffold for FAP Targeting Agents” (Erasmus University Medical Center Rotterdam, priority 2022, published 2026).

This assay addresses T1, human FAP (hFAP) (Homo sapiens, UniProt Q12884).
T1 sequence (Q12884 26-760 limits assumed): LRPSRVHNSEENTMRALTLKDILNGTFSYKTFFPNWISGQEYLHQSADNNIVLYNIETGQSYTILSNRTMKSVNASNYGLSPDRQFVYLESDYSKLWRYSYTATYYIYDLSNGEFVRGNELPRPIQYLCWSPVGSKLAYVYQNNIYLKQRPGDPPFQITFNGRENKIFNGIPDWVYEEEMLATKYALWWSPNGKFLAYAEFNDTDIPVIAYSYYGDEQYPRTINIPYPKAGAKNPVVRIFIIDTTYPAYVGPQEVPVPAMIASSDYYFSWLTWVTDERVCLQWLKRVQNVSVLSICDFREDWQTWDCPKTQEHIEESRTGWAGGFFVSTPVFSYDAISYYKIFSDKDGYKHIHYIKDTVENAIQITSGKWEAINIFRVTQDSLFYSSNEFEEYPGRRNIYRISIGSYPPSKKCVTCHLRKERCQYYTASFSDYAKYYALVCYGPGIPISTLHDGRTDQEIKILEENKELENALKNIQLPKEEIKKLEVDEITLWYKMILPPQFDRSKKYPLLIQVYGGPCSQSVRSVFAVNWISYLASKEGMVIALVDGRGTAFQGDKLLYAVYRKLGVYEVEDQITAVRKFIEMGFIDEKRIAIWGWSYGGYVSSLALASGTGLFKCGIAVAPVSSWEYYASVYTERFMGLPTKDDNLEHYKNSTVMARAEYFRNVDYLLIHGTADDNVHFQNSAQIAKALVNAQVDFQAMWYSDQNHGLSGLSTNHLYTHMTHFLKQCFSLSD
Briefly: In vitro inhibition assay on human FAP (Z-GP-AMC substrate). The following applies: 20 μM Z-GP-AMC, 20 nM FAP, pH 7.4, room temperature. The format is biochemical. As for the experimental part:
Enzymatic activity of human FAP (hFAP) and mouse FAP (mFAP) on the Z-GP-AMC substrate was measured at room temperature on a Hidex microplate reader by monitoring the fluorescence at an excitation wavelength of 360 nm and an emission wavelength of 465 nm. The reaction mixture contained 20 μM substrate, 20 nM FAP, assay buffer (50 mM Tris, 100 mM NaCl, 1 mM EDTA, pH 7.4) and tested compound (serial dilution from 10-6 to 10^−12) in a total volume of 50 μL.

The compound `N#C[C@@H]1CC(F)(F)CN1C(=O)CNC(=O)c1ccnc2c(OCCCNC(=O)CC(O)CNC(=O)CC(O)CNC(=S)Nc3ccc4c(c3)C(=O)OC43c4ccc(O)cc4Oc4cc(O)ccc43)cccc12` (stereo partly drawn) [eFAP-23, N-(2-((S)-2-cyano-4,4-difluoropyrrolidin-1-yl)-2-oxoethyl)-8-(3-(4-(4-(3-(3′,6′-dihydroxy-3-oxo-3H-spiro[isobenzofuran-1,9′-xanthen]-5-yl)thioureido)-3-hydroxybutanamido)-3-hydroxybutanamido)propoxy)quinoline-4-carboxamide] gave an IC50 of 2.1 ± 0.3 nM.
